In patent US4189604A, “Bestatin” (Zaidan Hojin Biseibutsu Kagaku Kenkyu Kai, priority 1975, dated 1980) one finds ID50 data, which are given here for four compounds.

The assay addresses T1, aminopeptidase B (Rattus norvegicus, UniProt O09175).
T1 construct: aminopeptidase B solution which is prepared by Sephadex 100 chromatography as described by Hopusu et al; from tissue
T1 sequence (O09175 1-650): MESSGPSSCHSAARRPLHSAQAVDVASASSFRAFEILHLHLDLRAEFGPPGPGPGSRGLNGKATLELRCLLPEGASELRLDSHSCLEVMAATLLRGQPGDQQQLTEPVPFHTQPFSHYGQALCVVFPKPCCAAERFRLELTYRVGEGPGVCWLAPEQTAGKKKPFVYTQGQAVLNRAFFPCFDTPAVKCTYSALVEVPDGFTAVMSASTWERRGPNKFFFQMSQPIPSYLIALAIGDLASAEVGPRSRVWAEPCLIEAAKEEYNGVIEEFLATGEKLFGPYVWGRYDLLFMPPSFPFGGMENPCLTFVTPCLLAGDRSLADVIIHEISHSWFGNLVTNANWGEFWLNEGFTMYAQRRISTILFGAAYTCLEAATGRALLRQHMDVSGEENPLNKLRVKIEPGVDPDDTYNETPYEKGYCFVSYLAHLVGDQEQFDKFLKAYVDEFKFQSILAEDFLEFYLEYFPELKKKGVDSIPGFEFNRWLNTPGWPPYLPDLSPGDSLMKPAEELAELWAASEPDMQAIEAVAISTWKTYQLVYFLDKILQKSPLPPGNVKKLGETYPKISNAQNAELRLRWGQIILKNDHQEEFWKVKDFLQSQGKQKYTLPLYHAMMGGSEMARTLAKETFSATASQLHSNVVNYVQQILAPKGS
Nature of the assay: Inhibitory activity against aminopeptidase B. Format: biochemical. Particulars: pH 7.0, 37° C., 30 minutes; Table 1. The method, then: (A) Inhibitory activity against aminopeptidase B Testing method: The method described by […] in Archives of Biochemistry and Biophysics 114, 557, (1966) was modfied. To the mixture of 0.3 ml. of 1 mM arginine β-naphthylamide and 1.0 Ml. of 0.1 M Tris hydrochloride buffer (pH 7.0), 0.7 Ml. of distilled water with or without a test material is added and warmed at 37° C. for 3 minutes. The reaction is started by addition of 0.2 ml. of aminopeptidase B solution which is prepared by Sephadex 100 chromatography as described by Hopusu et al. […] Fifteen minutes at room temperature thereafter, absorbance (a) at 530 nm is measured by spectrophotometer. As the control, by similar means the absorbance (b) after the reaction in the absence of a sample is measured. The inhibition percent is calculated as follows: (b-a)/b×100.

Values after ≈ are worked out from the molar mass of the structure shown.

For `CC(C)C[C@H](NC(=O)C(O)C(N)Cc1ccc(Cl)cc1)C(=O)O` (stereo partly drawn) [No. 19, (2RS,3RS)-3-amino-2-hydroxy-4-p-chlorophenylbutanoyl-(S)-leucine], the ID50 was determined as 0.07 µg/mL (≈ 0.204 µM).
Under `CC(C)C[C@H](NC(=O)C(O)C(N)Cc1ccccc1Cl)C(=O)O` (stereo partly drawn) [No. 20, (2RS,3RS)-3-amino-2-hydroxy-4-o-chlorophenylbutanoyl-(S)-leucine] stands 0.48 µg/mL (≈ 1.4 µM).
In the case of `CC(C)[C@H](NC(=O)[C@@H](O)[C@H](N)Cc1ccccc1)C(=O)O` [No. 6, (2S,3R)-3-amino-2-hydroxy-4-phenylbutanoyl-(S)-valine], the ID50 stood at 0.55 µg/mL (≈ 1.87 µM).
For `CCC[C@H](NC(=O)[C@@H](O)[C@H](N)Cc1ccccc1)C(=O)O` [No. 10, (2S,3R)-3-amino-2-hydroxy-4-phenylbutanoyl-(S)-norvaline], the ID50 is 0.17 µg/mL (≈ 0.578 µM).
